Reference: article PMC3454389, “Mining the Sinorhizobium meliloti Transportome to Develop FRET Biosensors for Sugars, Dicarboxylates and Cyclic Polyols” (PLoS ONE, 2012)

Chains of the proteins cited; added tags and fusions are not shown.
UniProt Q92P64, entry or part of it: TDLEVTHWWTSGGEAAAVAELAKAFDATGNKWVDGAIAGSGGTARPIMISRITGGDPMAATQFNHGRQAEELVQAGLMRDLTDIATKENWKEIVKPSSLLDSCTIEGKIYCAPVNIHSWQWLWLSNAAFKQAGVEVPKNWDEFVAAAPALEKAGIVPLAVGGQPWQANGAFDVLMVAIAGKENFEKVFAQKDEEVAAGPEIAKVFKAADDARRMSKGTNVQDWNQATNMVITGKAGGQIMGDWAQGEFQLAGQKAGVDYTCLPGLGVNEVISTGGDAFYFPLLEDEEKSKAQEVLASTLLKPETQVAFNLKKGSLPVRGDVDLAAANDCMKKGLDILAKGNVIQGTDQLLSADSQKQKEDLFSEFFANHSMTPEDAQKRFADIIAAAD

Target: SMc04259-CY (Sinorhizobium meliloti, UniProt Q92P64)
Experiment: FRET biosensor SMc04259-CY, in vitro ligand titration
Format: binding
Conditions: pCYS (pLMB345), Tris-HCl pH 8.5
Protocol: Ligand-induced FRET ratio changes of purified FRET biosensor were screened using a LS55 luminescence spectrometer (PerkinElmer Instruments). Excitation (ex.) was at (λ/slit width) 433/10 nm (CFP) or 549/10 nm (OFP). Emission (em.) was measured at 475/10 nm (CFP), 527/10 nm (YFP), 573/10 nm (OFP) and 644/10 nm (RFP). To confirm that Aphrodite and mKate2 were properly folded their fluorescence was individually tested by direct excitation at 510/6 nm and 588/10 nm respectively.
Affinity constants (Kd) of FRET biosensors with specific ligands were established using a monochromator microplate reader (Safire, Tecan, Switzerland; CFP ex.: (λ\bandwidth) 433/12 nm, em.: 475/12 nm; YFP em.: 527/12 nm. OFP ex.: 533/12 nm, em.: 563/12 nm; RFP em.: 615/12 nm). Proteins were diluted to give relative fluorescence units (RFU) in the detection range of 30,000 to 50,000 RFU at a gain of 90 to 100, and then were added to a dilution series (10^−3 to 10^−11 M) of ligand in Tris-HCl (pH 8.5, 50 mM). The change in relative emission intensities at 527/477 nm (YFP/CFP) or 615/563 nm (RFP/OFP) was used to determine Kd by fitting the titration curves to a single-site-binding isotherm: [drawing 1] with: R, ratio; Rapo, ratio without ligand; Rsat, ratio at saturation of ligand; n, number of equal binding sites; [L], ligand concentration. […]

gentiobiose
Kd: 53 nM
